Values quoted from earlier work as cited in PMC11181486, “Nonsymmetrically Substituted 1,1′-Biphenyl-Based Small Molecule Inhibitors of the PD-1/PD-L1 Interaction” (ACS Medicinal Chemistry Letters, 2024).
Read-outs that look alike come from different tables or passages of the source.

Key:
PD-1/PD-L1 = PD-1/PD-L1 (Homo sapiens, UniProt Q9NZQ7); conditions: cited from earlier work
PD-L1 = conditions: cited from earlier work

| SMILES | EC50 (PD-1/PD-L1; Figure S1, ref Muszak et al.) [nM] | IC50 (PD-L1) [nM] | EC50 (PD-1/PD-L1; Figure S2B, source not printed beside the compound) [nM] |
| --- | --- | --- | --- |
| COc1cc(-c2cccc(-c3ccc4c(c3)OCCO4)c2Cl)ccc1CNC(CO)(CO)CO | 1020 | – | – |
| COc1nc(-c2cccc(-c3cccc(-n4cc5cc(CN6CC[C@@H](C(=O)O)C6)cnc5n4)c3Cl)c2Cl)cc(C)c1CNC[C@@H]1CCC(=O)N1 | – | < 10 | < 100 |
